The subject of the experiment is glucose. Briefly: Study 5: plasma glucose after 1 mg AG-EE 388 ZW i.v., oral solution or capsule. It counts as in vivo, human. The conditions noted are these: 1.25 h.

As to `CCOc1cc(CC(=O)NC(CC(C)C)c2ccccc2N2CCCCC2)ccc1C(=O)O` (racemic) [AG-EE 388 ZW, 2-ethoxy-4-[N-[1-(2-piperidino-phenyl)-3-methyl-1-butyl]aminocarbonylmethyl]-benzoic acid], the “Glucose (mean)” value worked out at 4.40 mmol/L.
